Compounds with a hit are over-represented: about 13% of the library has one in this group of screens.
LMNA splice mod: changes lamin A minigene splicing in HeLa cells; Potency, µM (top dose mostly 46.1 µM), for the others: at the top dose ratio change, negative = inhibition, actives largely listed as inhibitors; 200,000 tested, 0.01% active; HeLa LMNA splicing GFP/RFP minigene ratio, 48 h; active means well fitted inhibition curve with a large enough effect in the signal ratio, with a control signal flat, not every such curve was filed as active; inconclusive means small, poorly fitted or top-dose-only effect, or effect the other way, or a change in a side signal; the % refers to the signal ratio; further: potency means the concentration at half of the fitted maximal effect; on the % scale 0 is the no-effect control and ±100 the full control effect
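S3 HeLa cells stably expressing lamin A-EGFP splicing minigene plus DsRed2, 600 cells/well, 48 h compound exposure at 37C. Laser-scanning cytometry; analysed as GFP (500-530 nm)/RFP (575-640 nm) total intensity ratio; 0.5% DMSO vehicle.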
ALDH1A1 inh: blocks purified human ALDH1A1 activity | P00352 | Purified ALDH1A1, NADH fluorescence, propionaldehyde substrate | Potency, µM (titrated, usually from 75.3 µM), for inactives: at the highest dose activity, negative = inhibition, hits mostly inhibitors | 220,000 tested, 7.3% active | AID 1030; active means well fitted inhibition curve with a large enough effect, not every such curve was filed as active; inconclusive means small, poorly fitted or top-dose-only effect, or another doubt; inactive means no such curve, though single readings can be large or run the other way;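 further: potency means the concentration at half of the fitted maximal effect; plate controls were no enzyme wells and a reference inhibitor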
G9a block: inhibitors of human histone lysine methyltransferase G9a; G9a H3K9 monomethylation, AlphaScreen, 2 h; 350,000 tested, 8.8% active; Potency, µM (top dose mostly 102 µM), inactives show at the top dose activity, negative = inhibition, most hits filed as inhibitors; AID 504332; further: potency means the concentration at half of the fitted maximal effect; on the % scale 0 is the no-effect control and ±100 the full control effect; nearly all actives have a fitted effect of over 75% in size
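Compounds were preincubated with 20 nM G9a for 15 min, after which biotinylated H3K9 peptide (500 nM) and SAM (20 uM) started a 2 h room-temperature reaction. Monomethylated product was quantified by antibody-based AlphaScreen chemiluminescence.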
JMJD2E inh: blocks human JMJD2E demethylase activity; B2RXH2; JMJD2E catalytic domain, FDH-coupled NADH fluorescence (FDH is formaldehyde dehydrogenase); Potency, µM (highest dose often 57.1 µM), for the others: at the top dose activity change, negative = inhibition, most hits filed as inhibitors; 230,000 tested, 1.6% active; AID 2147; active means well fitted inhibition curve with a large enough effect, not every such curve was filed as active; inconclusive means small, poorly fitted or top-dose-only effect, or another doubt; inactive means no such curve, though single readings can be large or run the other way;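 further: potency means the concentration at half of the fitted maximal effect; 0% = wells with enzyme and -100% = buffer wells without enzyme; nearly all actives have a fitted effect of over 50% in size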
miR-21 reporter: miR-21 reporter, rising signal | AID 2288 | HeLa miR-21 FLuc reporter, luciferase, 48 h | 340,000 tested, under 10 active | Potency, µM (titrated, usually from 38.3 µM), for the others: at the top dose reporter change, positive = more light; active = well fitted rising curve with a large enough effect; inconclusive = small, poorly fitted or top-dose-only effect; inactive = no such curve, though single readings can be large or run the other way;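 also: % of control where 0% means no effect; miR-21 action dims this reporter so a rising signal means less miR-21 action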
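Luminescence from a firefly luciferase reporter carrying a miR-21 binding site downstream, stably expressed under a CMV promoter in HeLa cells that make miR-21 endogenously, reports miRNA modulation after 48 h compound exposure up to approximately 40uM final.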
Sfp PPTase inh: qHTS Assay for Inhibitors of Bacillus subtilis Sfp phosphopantetheinyl transferase (PPTase) | 4'-phosphopantetheinyl transferase ffp (Bacillus subtilis), Q9F4F7 | Biochemical Sfp PPTase activity, qHTS | Potency, µM, for inactives: max response, negative = inhibition, hits mostly inhibitors | 3.5% of 310,000 active | AID 1490, 2009; active = well fitted inhibition curve with a large enough effect; inconclusive = small, poorly fitted or top-dose-only effect, or another doubt; inactive = no such curve, though single readings can be large or run the other way;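 also: the enzyme is Sfp with the accession as filed and its product quenches rhodamine fluorescence; potency is read from the fitted curve at half-maximal effect; 0% = enzyme reaction without inhibitor and -100% = no enzyme wells; top concentration of the series not given in the record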
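Compounds were incubated with enzyme (final 15 nM) for 15 min at room temperature before substrate addition started the reaction. Fluorescence at 525 nm excitation, 598 nm emission was recorded immediately and after 30 minutes.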
* hit, by the source's call; ? = inconclusive; · = not tested or not shown; [ ] = another dose, or the depositor's remark. Unless noted, the call rests on the fitted dose curve; in most records, active means well fitted curve in the direction sought with a large enough effect; inconclusive means small, poorly fitted or top-dose-only effect, or another doubt; inactive means no such curve, though single readings can be large; an effect the other way counts as inactive or inconclusive.

Short forms – A = LMNA splice mod; B = ALDH1A1 inh; C = G9a block; D = JMJD2E inh; E = miR-21 reporter; F = Sfp PPTase inh
(1) COc1ccc(NC(=O)CCCn2cnc3ccccc3c2=O)cc1
  A: ·	B: ·	C: 28µM*	D: ·	E: -12%	F: 50µM*
(2) O=C(CCCN1C(=O)CCC1=O)Nc1ccccc1F
  A: 4%	B: 0%	C: 56µM*	D: 3%	E: 1%	F: 79µM*
(3) Cc1cccc(CNC(=O)c2cccc(NC(=O)N3CCSc4ncccc43)c2)c1
  A: ·	B: ·	C: 0%[59 µM]	D: ·	E: 5%	F: ·
(4) COc1ccccc1N1CCN(CC(=O)Nc2nc(C)c(C(=O)N(C)C)s2)CC1
  A: ·	B: ·	C: 10%	D: ·	E: 1%	F: ?
(5) Cn1c(CN2CCCC2)nc2cc(NC(=O)COc3ccccc3)ccc21
  A: 8%	B: 17%	C: 5%[59 µM]	D: -7%	E: -14%	F: 15%
(6) Cn1c(CCN2CCCCC2)nc2cc([N+](=O)[O-])ccc21
  A: ?	B: ?	C: -11%	D: -2%	E: 8%	F: -1%
(7) CC(=O)N1CCN(Cc2nc3cc(NC(=O)COc4cccc(C)c4)ccc3n2C)CC1
  A: ·	B: ·	C: 6.3µM*	D: ·	E: 11%	F: -23%
(8) Cc1cccc(OCC(=O)Nc2ccc3c(c2)nc(CN2CCCCC2)n3C)c1
  A: ·	B: ·	C: 32µM*	D: -20%	E: 7%	F: -1%
(9) Cn1c(CN2CCCCC2)nc2cc([N+](=O)[O-])ccc21
  A: ·	B: 11µM*	C: ?	D: -21%	E: -3%	F: -1%
(10) Cc1cccc(OCC(=O)Nc2ccc3c(c2)nc(CCN2CCCCC2)n3C)c1
  A: ·	B: ·	C: -7%	D: ·	E: -5%	F: 18%
(11) CCC(c1nnnn1Cc1ccco1)N(CCc1ccccc1)Cc1cc2cc(C)ccc2[nH]c1=O (stereo not given)
  A: ?	B: 25µM*	C: 40µM*	D: ?	E: -3%	F: 18µM*
(12) CCC(c1nnnn1CCc1ccccc1)N(Cc1ccco1)Cc1cc2c(C)ccc(C)c2[nH]c1=O (stereo not given)
  A: ?	B: 22µM*	C: ?	D: ?	E: 23%	F: -14%
(13) CCC(c1nnnn1Cc1ccccc1)N(Cc1ccco1)Cc1cc2cc(OC)ccc2[nH]c1=O (stereo not given)
  A: ?	B: ?	C: 17%[2.33 µM]	D: ?	E: -19%	F: -22%
(14) Cc1ccc2[nH]c(=O)c(CN(CCc3ccccc3)C(c3nnnn3Cc3ccco3)C(C)C)cc2c1 (stereo not given)
  A: ·	B: ·	C: ?	D: ?	E: -1%	F: 18µM*
(15) O=C(NCC1CCCO1)c1cc(Br)c(Br)s1 (stereo not given)
  A: ·	B: ·	C: 31%	D: ·	E: -15%	F: 10%
(16) CS(=O)(=O)c1ccc(C(=O)OCC(=O)N2CCCc3ccccc32)cc1
  A: ·	B: ·	C: 5%[0.501 µM]	D: ·	E: ·	F: ·
(17) CCOc1ccc(C(=O)N[C@H](C(=O)Nc2ccccc2OC)C(C)C)cc1
  A: ·	B: ·	C: 18%	D: ·	E: -6%	F: 15%
(18) COc1ccc(C2Nc3ccccc3C(=O)N2c2ccc(C)cc2)cc1Cn1nnc2ccccc21 (stereo not given)
  A: -2%	B: -12%	C: -7%	D: -1%	E: -64%	F: 14%
(19) COc1ccc(C2Nc3ccccc3C(=O)N2c2ccc(C)cc2)cc1Cn1cc([N+](=O)[O-])cn1 (stereo not given)
  A: 8%	B: 28µM*	C: 3%[12.7 µM]	D: 2%	E: -49%	F: 3%
(20) O=C(NC1CCCCC1)c1sc(=S)n2c1[nH]c(=O)c1ccccc12
  A: 6%	B: 3.2µM*	C: ·	D: 4%	E: -1%	F: -77%
(21) CCCCNC(=O)c1sc(=S)n2c1[nH]c(=O)c1ccccc12
  A: ?	B: ?	C: ?	D: 2%	E: 2%	F: -5%
(22) O=C(NCC1CCCO1)c1sc(=S)n2c1[nH]c(=O)c1ccc(C(=O)N3CCCCC3)cc12 (stereo not given)
  A: ?	B: ?	C: 45µM*	D: 3%	E: -46%	F: -9%
(23) CCOC(=O)c1ccc(CN(Cc2ccc(F)cc2)S(=O)(=O)c2ccc(F)c(C(=O)Nc3cc(Cl)ccc3OC)c2)cc1
  A: 20%[46 µM]	B: ·	C: -6%[59 µM]	D: ·	E: -1%	F: ·
(24) COc1ccccc1C(=O)NC(=S)Nc1ccc(N2CCCC2)cc1
  A: -4%	B: -2%	C: 45µM*	D: -3%	E: -12%	F: 11%
(25) COc1ccc(N2CCN(CCNC(=O)Nc3ccc(Cl)cc3)CC2)cc1
  A: ?	B: 8%	C: 8.9µM*	D: 2%	E: 3%	F: -2%
(26) COc1cc(C(=O)NC(=S)Nc2ccc(N3CCCC3)cc2)cc(OC)c1OC
  A: ?	B: 28µM*	C: 32µM*	D: ?	E: -4%	F: ?
(27) COc1cccc(C(=O)NC(=S)Nc2ccc(N(C)C)cc2)c1
  A: ?	B: 10µM*	C: 10µM*	D: -4%	E: -53%	F: ?
(28) O=C(NCCN1CCN(c2ccccc2)CC1)Nc1ccc(Cl)cc1
  A: ·	B: ·	C: -1%	D: ·	E: 9%	F: 10%
(29) COc1cccc(C(=O)Nc2ccc(C)cc2)c1
  A: -7%	B: -8%	C: 8%[12.7 µM]	D: ?	E: -28%	F: 4%
(30) Cc1ccc(NC(=O)C2CCN(c3nc4ccccc4nc3C(F)(F)F)CC2)cc1F
  A: ·	B: ·	C: -1%[59 µM]	D: ·	E: 24%	F: ·
(31) CCN(CC)S(=O)(=O)c1cccc(C(=O)Nc2ccccc2C(=O)Nc2ccc(OC)cc2)c1
  A: -3%[46 µM]	B: ·	C: -22%[59 µM]	D: ·	E: 2%	F: ·
(32) COc1cccc(C(=O)NC(=S)Nc2ccc(N3CCCC3)cc2)c1
  A: 18%	B: 9.5µM*	C: 8.9µM*	D: -7%	E: -16%	F: -4%
(33) CCOc1ccc(NC(=S)NCCCN2CCN(c3ccc(OC)cc3)CC2)cc1
  A: -6%[46 µM]	B: -6%	C: 40µM*	D: 0%	E: 14%	F: 6%
(34) CN1CCN(c2ccc(NC(=O)c3ccc(Oc4ccccc4)cc3)cc2)CC1
  A: ·	B: ·	C: 50µM*	D: ·	E: -14%	F: 0%
(35) CCOc1ccc(NC(=O)NCCCN2CCN(c3ccc(OC)cc3)CC2)cc1
  A: ·	B: ·	C: ?	D: ·	E: -2%	F: ·
(36) CN(C)c1ccc(C(CC(=O)O)NC(=O)c2ccc(Cl)cc2)cc1 (stereo not given)
  A: 8%	B: 18µM*	C: -45%[59 µM]	D: -26%	E: -2%	F: 20%
(37) COc1ccccc1OCC(=O)NNC(=S)NC(=O)c1ccco1
  A: ?	B: 28µM*	C: ?	D: ?	E: 1%	F: -17%
(38) COc1ccc(C(=S)Nc2ccc(N(C)C)cc2)cc1
  A: -7%	B: -4%	C: ?	D: 2%	E: -51%	F: 0%
(39) COc1ccc(C(=O)Nc2ccc(N3CCCC3)cc2)cc1
  A: 0%	B: ?	C: 1.6µM*	D: -6%	E: -23%	F: 79µM*
(40) COc1ccc(NC(=S)c2ccc(N(C)C)cc2)cc1
  A: 15%	B: ?	C: 25µM*	D: 6%	E: -72%	F: 5%

Entries by screen from above.
G9a block, compounds 30 to 40 → -1%[59 µM], -22%[59 µM], 8.9µM*, 40µM*, 50µM*, ?, -45%[59 µM], ?, ?, 1.6µM*, 25µM*
ALDH1A1 inh, compounds 30 to 40 → ·, ·, 9.5µM*, -6%, ·, ·, 18µM*, 28µM*, -4%, ?, ?

The results go on.
Short forms – A = LMNA splice mod; B = ALDH1A1 inh; C = G9a block; D = JMJD2E inh; E = miR-21 reporter; F = Sfp PPTase inh
(41) O=C(Nc1ccc(N2CCCCC2)cc1)c1ccc(F)cc1
  A: 9%	B: -11%	C: ?	D: 6%	E: -45%	F: 13%
(42) COc1ccccc1C(=O)NC(=S)Nc1ccc(NC(=O)c2ccco2)cc1
  A: 10%[46 µM]	B: 13µM*	C: ?	D: -7%	E: -18%	F: -19%
(43) COC(=O)c1ccc(NC(=O)CN(Cc2ccccc2)S(=O)(=O)c2ccc(Cl)cc2)cc1
  A: ·	B: ·	C: -3%[59 µM]	D: ·	E: 28%	F: ·
(44) Nc1nc(N)c(S(=O)(=O)c2ccccc2)c(Nc2ccc(Br)cc2)n1
  A: ·	B: ·	C: -1%[59 µM]	D: ·	E: 18%	F: ·
(45) CCCOc1ccc(C(=O)Nc2ccc(N(C)C)cc2)cc1
  A: 5%	B: ?	C: ?	D: ?	E: -16%	F: 10%
(46) CC(C)Oc1ccc(C(=O)Nc2ccc(N(C)C)cc2)cc1
  A: ?	B: ?	C: 3.5µM*	D: ?	E: -14%	F: -10%

Some of the entries above, set out differently:
cpd	molecule	LMNA splice mod	ALDH1A1 inh	G9a block	JMJD2E inh	miR-21 reporter	Sfp PPTase inh
44	Nc1nc(N)c(S(=O)(=O)c2ccccc2)c(Nc2ccc(Br)cc2)n1	·	·	-1%[59 µM]	·	18%	·
43	COC(=O)c1ccc(NC(=O)CN(Cc2ccccc2)S(=O)(=O)c2ccc(Cl)cc2)cc1	·	·	-3%[59 µM]	·	28%	·
